In US20100003217A1, “Compounds and Pharmaceutical Compositions for the Treatment of Viral Infections” (priority 2008, published 2010):

Tested on: wild-type HCV replicon (GS4.1 cells)
Conditions: wild-type GS4.1 replicon cells
Experimental: 1. […] Huh-7 cells were seeded into column 1 of each plate at a similar density.
2. […] Eight additional 3-fold serial dilutions of each compound were prepared from the 2× stock in assay medium. Final drug concentrations ranged from 100 to 0.015 μM.
3. […] This setup was run in duplicate in each 96-well plate.
4. Cells were incubated with inhibitors for three days at 37° C./5% CO2.
1. After three days of drug treatment, media was removed from the plates via gentle tapping and the cells were fixed to the plates with 100 μL/well of 1:1 acetone:methanol.
2. After one minute of incubation at room temperature, plates were washed three times with 100 μL/well of ELISA wash solution and then blocked with 150 μL/well of 10% FBS-TNE.
3. After a one hour incubation at room temperature, plates were washed three times with 100 μL/well of ELISA wash solution, and then 100 μL/well of mouse anti-hepatitis C […] mAb (1 mg/mL stock diluted 1:1,500 in 10% FBS-TNE) was added.
4. Following 2 hours of incubation at 37° C., plates were washed three times with 100 μL/well of ELISA wash solution, and then 100 μL/well of HRP-goat anti-mouse antibody (diluted 1:4,000 in 10% FBS-TNE) was added.
4. […]
6. The absorbance was measured at 490 nm on a Victor^3 V 1420 multilabel counter (Perkin Elmer). The percent inhibition of HCV replicon replication was calculated for each drug using an average of the duplicate wells.

NC(=O)c1ncn([C@@H]2O[C@H](CO)[C@@H](O)[C@H]2O)n1 [RBV, ribavirin, reference compound]
fold less active than Compound 1: approximately 126 fold
